Test results from ChEMBL document CHEMBL4011650, “3-Hydroxy-1H-quinazoline-2,4-dione as a New Scaffold To Develop Potent and Selective Inhibitors of the Tumor-Associated Carbonic Anhydrases IX and XII” (J Med Chem, 2017).

Sequences of proteins named here, by UniProt entry; tags and fusion partners are left off. A change or cut given only in a name is not applied to a line headed by its entry.
UniProt O43570: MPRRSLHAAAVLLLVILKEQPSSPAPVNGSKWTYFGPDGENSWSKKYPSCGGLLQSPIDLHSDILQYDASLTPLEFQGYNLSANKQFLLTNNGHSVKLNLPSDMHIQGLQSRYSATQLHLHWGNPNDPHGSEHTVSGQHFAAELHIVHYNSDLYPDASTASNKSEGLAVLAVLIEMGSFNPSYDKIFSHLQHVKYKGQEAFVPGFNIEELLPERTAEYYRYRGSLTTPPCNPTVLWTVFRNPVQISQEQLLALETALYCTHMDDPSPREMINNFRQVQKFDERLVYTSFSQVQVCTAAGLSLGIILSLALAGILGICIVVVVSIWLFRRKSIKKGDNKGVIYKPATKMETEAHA

Target: Carbonic anhydrase 12 (Homo sapiens, UniProt O43570)

- Ki: 732 nM
SMILES: O=C(Nc1ccccc1)Nc1ccc2[nH]c(=O)n(O)c(=O)c2c1
